The experiment deals with rat aortic smooth muscle cells. As to the kind of experiment: Mitogenic activity of blood coagulation factors on smooth muscle cells (3H-thymidine incorporation). Format: cell-based, Wistar rats. The settings on record: FIG. 1, 10 nM coagulation factor, 24 h. How it is done: Primary smooth muscle cell cultures were prepared from the thoracic and abdominal aorta of 2-3 month old Wistar rats essentially using the procedure of Reilly, C. F. (1990) J. Cell Physiol. 142,342 (1990). After removing as much fat and adherent adventitia as possible with scissors and forceps, the tissue was finely minced, enzymatically dissociated with successive 37° C. incubations in HBSS containing collagenase (Sigma, 0.5 mg/ml for 15 min.), then elastase (Sigma, 0.125 mg/ml for 30 min.) and again collagenase (60 min.). […] Cells were grown in Dulbecco's Minimal Essential Medium (DMEM) containing 10% fetal bovine serum (FBS) with antibiotics. […]
The prepared rat smooth muscle cells were seeded in Falcon 24 multiwell plates (10^5 cells/well) and cultured at 37° C., in a 5% CO2 atmosphere in 1 ml DMEM containing 10% FBS. […] The cells were washed twice with cold phosphate buffered saline (PBS), treated twice with 5% trichloroacetic acid (TCA) for 5 min., dissolved with 0.25N NaOH (0.4 ml) incubated at 37° C. for 60 min., mixed with 5 ml Ecolume (ICN Biomedicals, Costa Mesa, Calif.), and their radioactivity determined in a scintillation counter. […] Smooth muscle cell mitogenic activity produced by exogenous agents is expressed as % relative mitogenic activity which is defined as: [formula] […]

The values below come from US5385885A, “Inhibition of smooth muscle cell proliferation by antistasin and tick anticoagulant peptide” (priority 1991, dated 1995).

B1: bovine factor X: bovine coagulation factor X (protein, UniProt P00743 41-492, looked up)
Coagulation factor X: ANSFLEEVKQGNLERECLEEACSLEEAREVFEDAEQTDEFWSKYKDGDQCEGHPCLNQGHCKDGIGDYTCTCAEGFEGKNCEFSTREICSLDNGGCDQFCREERSEVRCSCAHGYVLGDDSKSCVSTERFPCGKFTQGRSRRWAIHTSEDALDASELEHYDPADLSPTESSLDLLGLNRTEPSAGEDGSQVVRIVGGRDCAEGECPWQALLVNEENEGFCGGTILNEFYVLTAAHCLHQAKRFTVRVGDRNTEQEEGNEMAHEVEMTVKHSRFVKETYDFDIAVLRLKTPIRFRRNVAPACLPEKDWAEATLMTQKTGIVSGFGRTHEKGRLSSTLKMLEVPYVDRSTCKLSSSFTITPNMFCAGYDTQPEDACQGDSGGPHVTRFKDTYFVTGIVSWGEGCARKGKFGVYTKVSNFLKWIDKIMKARAGAAGSRGHSEAPATWTVPPPLPL
In the case of B1, the “% relative mitogenic activity above control” value is reported as “about 70%”.
